Target: T1, 4-galactosyl-N-acetylglucosaminide 3-alpha-L-fucosyltransferase 9 (Homo sapiens) (UniProt Q9Y231)
T1 sequence (whole entry): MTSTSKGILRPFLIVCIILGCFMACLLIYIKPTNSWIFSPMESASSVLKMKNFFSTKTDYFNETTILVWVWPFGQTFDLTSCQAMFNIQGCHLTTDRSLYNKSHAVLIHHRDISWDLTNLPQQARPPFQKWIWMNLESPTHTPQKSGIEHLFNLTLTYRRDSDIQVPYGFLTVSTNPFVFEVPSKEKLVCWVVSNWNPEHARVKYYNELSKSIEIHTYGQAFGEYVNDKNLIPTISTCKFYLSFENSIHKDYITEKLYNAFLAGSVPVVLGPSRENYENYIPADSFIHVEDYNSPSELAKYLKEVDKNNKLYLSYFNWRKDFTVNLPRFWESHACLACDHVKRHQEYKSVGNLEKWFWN
Assay: Inhibition of human recombinant alpha1,3-fucosyltransferase 9 using GDP-[14C]-fucose preincubated for 30 mins by liquid scintillation counting
Design: concentration or dose not given beside the values

Nc1nc2c(ncn2[C@@H]2O[C@H](COP(=O)(O)OP(=O)(O)O)[C@@H](O)[C@H]2O)c(=O)[nH]1
inhibition: < 75%

Reference: ChEMBL document CHEMBL3351541, “Synthesis and analysis of potential α1,3-fucosyltransferase inhibitors” (Bioorg Med Chem, 2014)
